Data from patent US20260382613A1, “METHODS OF TREATING ACUTE LEUKEMIA” (published 2026).

Assay: preclinical differentiation and apoptosis
Settings: preclinical studies

**Q.** For `CNc1nc(NC2CCN(Cc3ccc4c(cc(C#N)n4C[C@H](C)N4CCN(S(C)(=O)=O)CC4)c3C)CC2)c2cc(CC(F)(F)F)sc2n1`, which “terminal differentiation and scheduled apoptosis” value is on record?
**A.** drive terminal differentiation and scheduled apoptosis
